Experimental data taken from ChEMBL document CHEMBL2176977 (J Med Chem, 2012).

Chains of the proteins cited; added tags and fusions are not shown.
UniProt P41144, whole entry: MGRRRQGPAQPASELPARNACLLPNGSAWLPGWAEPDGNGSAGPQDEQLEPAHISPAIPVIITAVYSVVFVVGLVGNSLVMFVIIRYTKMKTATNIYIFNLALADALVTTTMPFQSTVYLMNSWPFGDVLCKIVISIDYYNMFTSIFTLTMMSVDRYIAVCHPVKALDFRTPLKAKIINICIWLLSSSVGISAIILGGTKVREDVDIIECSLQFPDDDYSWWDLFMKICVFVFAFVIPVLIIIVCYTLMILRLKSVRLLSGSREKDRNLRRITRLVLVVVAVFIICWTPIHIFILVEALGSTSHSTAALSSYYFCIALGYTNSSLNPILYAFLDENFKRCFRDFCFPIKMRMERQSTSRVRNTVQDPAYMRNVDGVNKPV
UniProt P97266, whole entry: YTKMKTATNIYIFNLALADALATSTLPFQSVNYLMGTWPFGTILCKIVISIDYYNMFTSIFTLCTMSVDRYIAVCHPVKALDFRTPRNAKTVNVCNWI

How the values were obtained:
[1] = target: Kappa-type opioid receptor (Cavia porcellus, UniProt P41144); experiment: Displacement of [3H]U69593 from KOR in guinea pig brain membrane
[2] = target: Mu-type opioid receptor (Cavia porcellus, UniProt P97266); experiment: Displacement of [3H]DAMGO from MOR in guinea pig brain membrane
[3] = test system: Mus musculus; experiment: Inhibition of morphine-induced antinociception in mouse assessed as reversal of inhibition of acetic acid-induced writhing at 32 mg/kg administered 24 hrs post morphine treatment
[4] = test system: Mus musculus; experiment: Inhibition of morphine-induced antinociception in mouse assessed as rightward shift of morphine curve at 32 mg/kg administered 24 hrs prior morphine treatment by 55 degC warm water test relative to control
[5] = test system: Mus musculus; experiment: Inhibition of morphine-induced antinociception in mouse assessed as rightward shift of morphine curve at 32 mg/kg administered 30 mins prior morphine treatment by 55 degC warm water test relative to control
[6] = test system: Mus musculus; experiment: Inhibition of BW373U86-induced antinociception in mouse assessed as reversal of inhibition of acetic acid-induced writhing at 32 mg/kg administered 24 hrs post BW373U86 treatment
[7] = test system: Mus musculus; experiment: Inhibition of bremazocine-induced antinociception in mouse assessed as reversal of inhibition of acetic acid-induced writhing at 32 mg/kg administered 24 hrs post bremazocine treatment
[8] = test system: Mus musculus; experiment: Antinociceptive activity in mouse assessed as inhibition of acetic acid-induced writhing at 32 mg/kg
[9] = test system: Mus musculus; experiment: Antinociceptive activity in mouse assessed as inhibition of acetic acid-induced writhing at 10 mg/kg
[10] = test system: Mus musculus; experiment: Inhibition of morphine-induced antinociception in mouse assessed as rightward shift of morphine curve at 10 mg/kg administered 24 hrs post morphine treatment by 55 degC warm water test relative to control
[11] = test system: Mus musculus; experiment: Antinociceptive activity in mouse assessed as tail withdrawal latency at 100 mg/kg by 50 degC warm water test
[12] = test system: Mus musculus; experiment: Antinociceptive activity in mouse assessed as tail withdrawal latency at 100 mg/kg by 55 degC warm water test

SMILES | Ki [1] [nM] | Ki [2] [nM] | inhibition (INH) [3] [%] | fold change (FC) [4] | inhibition (INH) [6] [%] | inhibition (INH) [7] [%] | further results
COC(=O)/C=C/C(=O)O[C@@]12CCC(=O)[C@@H]3Oc4c(O)ccc5c4[C@@]31CCN(CC1CC1)[C@@H]2C5 [listing 1 of 2 here] | 0.8 | 0.2 |  |  |  |  | 
COC(=O)/C=C/C(=O)N[C@H]1C[C@@]23CC[C@]1(OC)[C@@H]1Oc4c(O)ccc5c4[C@@]12CCN(CC1CC1)[C@@H]3C5 | 1.9 | 2.8 | 70 | 4 | 28 | 20 | fold change (FC) [5]: 30
COC(=O)/C=C/C(=O)O[C@@]12CCC(=O)[C@@H]3Oc4c(O)ccc5c4[C@@]31CCN(CC1CC1)[C@@H]2C5 [listing 2 of 2 here] |  |  | 10 | 4 | 15 | 30 | 
COC(=O)/C=C/C(=O)NC[C@H]1C[C@@]23CC[C@]1(OC)[C@@H]1Oc4c(O)ccc5c4[C@@]12CCN(CC1CC1)[C@@H]3C5 [listing 1 of 2 here] | 2.8 | 0.9 |  |  |  |  | 
COC(=O)/C=C/C(=O)NC[C@H]1C[C@@]23CC[C@]1(OC)[C@@H]1Oc4c(O)ccc5c4[C@@]12CCN(CC1CC1)[C@@H]3C5 [listing 2 of 2 here] |  |  | 95 | 30 | 10 | 25 | inhibition (INH) [8]: 80%
COC(=O)CCC(=O)N[C@@]12CCC(=O)[C@@H]3Oc4c(O)ccc5c4[C@@]31CCN(CC1CC1)[C@@H]2C5 [listing 1 of 2 here] |  |  |  | 4 |  |  | Imax [8]: 90%; fold change (FC) [5]: 10
COC(=O)/C=C/C(=O)N[C@@]12CCC(=O)[C@@H]3Oc4c(O)ccc5c4[C@@]31CCN(CC1CC1)[C@@H]2C5 | 0.5 | 0.24 | 62 |  | 31 | 5 | Imax [9]: 90%; fold change (FC) [10]: 6; Activity [11]: 60%; Activity [12]: 30%
CO[C@]12CC[C@@]3(C[C@@H]1NC(=O)/C=C/c1ccccc1)[C@H]1Cc4ccc(O)c5c4[C@@]3(CCN1CC1CC1)[C@H]2O5 | 1.3 | 0.9 |  |  |  |  | 
COC(=O)CCC(=O)N[C@@]12CCC(=O)[C@@H]3Oc4c(O)ccc5c4[C@@]31CCN(CC1CC1)[C@@H]2C5 [listing 2 of 2 here] | 0.5 | 0.7 |  |  |  |  | 
CO[C@]12CC[C@@]3(C[C@@H]1CNC(=O)/C=C/c1ccccc1)[C@H]1Cc4ccc(O)c5c4[C@@]3(CCN1CC1CC1)[C@H]2O5 | 2.6 | 0.7 |  |  |  |  | 
